Yeast mating assay 1: variants of the scFv Ab-14

Data: MIT Lincoln Laboratory AlphaSeq set, Engelhart et al. 2022, doi:10.1038/s41597-022-01779-4, as distributed in FLAb.

The target is the same throughout: PDVDLGDISGINAS, from the HR2 region of SARS-CoV-2 spike.

Parent: Ab-14, a human scFv built as VH, a (GGGGS)3 linker, VL. Only the CDRs of the heavy chain vary.
VH: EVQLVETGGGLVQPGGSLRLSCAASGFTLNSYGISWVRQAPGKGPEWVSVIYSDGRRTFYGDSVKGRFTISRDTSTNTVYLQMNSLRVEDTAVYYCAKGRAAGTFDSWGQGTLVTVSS
VL: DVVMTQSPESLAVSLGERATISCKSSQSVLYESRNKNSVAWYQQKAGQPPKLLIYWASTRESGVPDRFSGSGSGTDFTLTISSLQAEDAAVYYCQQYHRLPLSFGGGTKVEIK

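The parent was found by panning a naive human phage display library on the peptide. Variants in AAYL49 differ from the parent at up to three CDR positions; double and triple changes were sampled at random. The scFvs were displayed on barcoded MATa yeast, the peptide on MATalpha yeast. The frequency of each diploid, read from paired DNA barcodes, reflects how well the two displayed proteins bind. Scores were corrected for input abundance and mapped to Kd with protein pairs of known affinity run in the same pool. Mating was done three times.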

The parent's heavy chain CDRs are GFTLNSYGIS, VIYSDGRRTFYGDSVK, GRAAGTFDS; each variant's own CDRs replace them letter for letter.
Affinities are written as log10 Kd with Kd in nM; a lower number is a better binder.
Replicates are averaged; those with no signal do not enter the mean.
A pair that was not seen in that replicate is written "nd"; this usually means weak binding, but a binder can also be missed.

{"CDR-H1": "GFTLNSYLIS", "CDR-H2": "VIYSRGRRTFYGDSVN", "CDR-H3": "GRAAGTFDS", "log10 Kd, replicates": "nd nd nd", "mean, log10 nM": "nd", "empty controls": "1/9 (4.06)"}
{"CDR-H1": "KFTLNSYGIS", "CDR-H2": "VYYSDGRRTFYDDSVK", "CDR-H3": "GRAAGTFDS", "log10 Kd, replicates": "3.64 3.61 nd", "mean, log10 nM": "3.63", "empty controls": "3/9 (4.30)"}
{"CDR-H1": "GFTLNSYGIS", "CDR-H2": "VIYSAGRRTFYGDSNK", "CDR-H3": "GRAAGNFDS", "log10 Kd, replicates": "nd nd nd", "mean, log10 nM": "nd", "empty controls": "0/9"}
{"CDR-H1": "GFTLNSYSIS", "CDR-H2": "VIYSDGRRTFYGDSVK", "CDR-H3": "GRAAGTFDP", "log10 Kd, replicates": "4.72 3.32 nd", "mean, log10 nM": "4.02", "empty controls": "1/9 (2.83)"}
{"CDR-H1": "GFTLNSYGIS", "CDR-H2": "VIYSDRRRTYYGDSVK", "CDR-H3": "GRAAGTFDS", "log10 Kd, replicates": "nd nd 4.24", "mean, log10 nM": "4.24", "empty controls": "1/9 (4.64)"}
{"CDR-H1": "MFTLNSYGIS", "CDR-H2": "VIWSDGRRTFYGGSVK", "CDR-H3": "GRAAGTFDS", "log10 Kd, replicates": "nd nd nd", "mean, log10 nM": "nd", "empty controls": "0/9"}
{"CDR-H1": "GFTLNSYGIS", "CDR-H2": "VIYSDGRRHFYTDSVK", "CDR-H3": "GRYAGTFDS", "log10 Kd, replicates": "0.91 1.13 0.91", "mean, log10 nM": "0.98", "empty controls": "1/9 (4.65)"}
{"CDR-H1": "GFTLNSYGIS", "CDR-H2": "VLYSDGRRMFYGDSVK", "CDR-H3": "GRANGTFDS", "log10 Kd, replicates": "6.37 3.30 5.14", "mean, log10 nM": "4.93", "empty controls": "2/9 (3.96)"}
{"CDR-H1": "GFTLNSYGMS", "CDR-H2": "VIYSDGRRWFYGDSVK", "CDR-H3": "GRAAATFDS", "log10 Kd, replicates": "nd nd nd", "mean, log10 nM": "nd", "empty controls": "1/9 (3.03)"}
{"CDR-H1": "GFMLNSYGIS", "CDR-H2": "VIYSDGRRTFYGDSDK", "CDR-H3": "GRAAMTFDS", "log10 Kd, replicates": "5.02 nd nd", "mean, log10 nM": "5.02", "empty controls": "4/9 (3.67)"}
{"CDR-H1": "GFTLNSYGIS", "CDR-H2": "VIYSDARRTFYGDSVK", "CDR-H3": "GFAAGTFDS", "log10 Kd, replicates": "nd nd nd", "mean, log10 nM": "nd", "empty controls": "2/9 (4.08)"}
{"CDR-H1": "GFTLNSYQIS", "CDR-H2": "VIYSDGRRTFYWDSWK", "CDR-H3": "GRAAGTFDS", "log10 Kd, replicates": "nd nd 4.56", "mean, log10 nM": "4.56", "empty controls": "0/9"}
{"CDR-H1": "GFKLNFYGIS", "CDR-H2": "VIYSDGRRTFYGDEVK", "CDR-H3": "GRAAGTFDS", "log10 Kd, replicates": "3.08 2.31 3.18", "mean, log10 nM": "2.86", "empty controls": "1/9 (4.32)"}
{"CDR-H1": "GFTLNSYGIS", "CDR-H2": "VMYGDGRRTFYGDSAK", "CDR-H3": "GRAAGTFDS", "log10 Kd, replicates": "2.57 nd 4.30", "mean, log10 nM": "3.44", "empty controls": "2/9 (2.98)"}
{"CDR-H1": "GFTLNSYGIS", "CDR-H2": "VIYMDGRRRFYGDSVK", "CDR-H3": "GRAAGTFDS", "log10 Kd, replicates": "3.29 nd nd", "mean, log10 nM": "3.29", "empty controls": "0/9"}
{"CDR-H1": "GFTLNSYYIS", "CDR-H2": "VIQSDGRRTFPGDSVK", "CDR-H3": "GRAAGTFDS", "log10 Kd, replicates": "4.59 nd 3.66", "mean, log10 nM": "4.12", "empty controls": "4/9 (4.32)"}
{"CDR-H1": "GEDLNYYGIS", "CDR-H2": "VIYSDGRRTFYGDSVK", "CDR-H3": "GRAAGTFDS", "log10 Kd, replicates": "0.66 0.77 0.83", "mean, log10 nM": "0.75", "empty controls": "1/9 (3.13)"}
{"CDR-H1": "LFTLNSYGIS", "CDR-H2": "VIYSDGRRTMYGDSVK", "CDR-H3": "GRAAGTFDR", "log10 Kd, replicates": "4.32 4.70 nd", "mean, log10 nM": "4.51", "empty controls": "2/9 (3.10)"}
{"CDR-H1": "GFTLNSKGIS", "CDR-H2": "VIYSDGRRTFYGDSDK", "CDR-H3": "GRAAGTFDW", "log10 Kd, replicates": "nd nd nd", "mean, log10 nM": "nd", "empty controls": "1/9 (4.22)"}

Extract of 3 entries:

{"CDR-H1": "GFTLNSKGIS", "CDR-H2": "VIYSDGRRTFYGDSDK", "CDR-H3": "GRAAGTFDW", "log10 Kd, replicates": "nd nd nd", "mean, log10 nM": "nd", "empty controls": "1/9 (4.22)"}
{"CDR-H1": "GFTLNSYQIS", "CDR-H2": "VIYSDGRRTFYWDSWK", "CDR-H3": "GRAAGTFDS", "log10 Kd, replicates": "nd nd 4.56", "mean, log10 nM": "4.56", "empty controls": "0/9"}
{"CDR-H1": "GFTLNSYGIS", "CDR-H2": "VIYSDRRRTYYGDSVK", "CDR-H3": "GRAAGTFDS", "log10 Kd, replicates": "nd nd 4.24", "mean, log10 nM": "4.24", "empty controls": "1/9 (4.64)"}

Nonspecific signal, from three strains lacking the peptide, appeared in 15% of pairings of library AAYL49, centred on 4.06 (5% of these signals below 2.83); values are not corrected for it. For each scFv, signals with the empty controls are counted beside the result, with their mean in brackets.
For reference, the parent read 0.65 as the reference entry and 4.11 (one replicate of three) as a member of this library.